This test has as its system HL-60. Nature of the test: HL-60 cell differentiation relative to 1-alpha, 25-dihydroxyvitamin D3. Type of test: functional, Homo sapiens.

Molecule `C=C1/C(=C\C=C2/CCC[C@]3(C)[C@@H]([C@H](C)CCCC(C)(C)O)CC[C@@H]23)C[C@H](O)[C@H](C)[C@@H]1O` came in with a Relative potency of 13.

The values are drawn from ChEMBL document CHEMBL1130618, “A novel and practical route to A-ring enyne synthon for 1 alpha,25-dihydroxyvitamin D3 analogs: synthesis of A-ring diastereomers of 1 alpha,25-dihydroxyvitamin D2 and 3-methyl-1,25-dihydroxyvitamin D3” (1998).
